# Experimental data: ChEMBL document CHEMBL5537125, “Discovery of C-3 isoxazole substituted thiochromone S,S-dioxide derivatives as potent and selective inhibitors for monoamine oxidase B (MAO-B)” (Eur J Med Chem, 2024)
# Species on record: Homo sapiens
# Test: Selectivity index, ratio of IC50 for human recombinant MAO-A to IC50 for human recombinant MAO-B
row,Compound,Ratio IC50
1,O=C1C(c2cc(-c3ccccc3C(F)(F)F)no2)=CS(=O)(=O)c2ccccc21,> 4330
2,COc1ccc(-c2cc(C3=CS(=O)(=O)c4ccccc4C3=O)on2)cc1,> 10000
3,O=C1C(c2cc(-c3ccc(Cl)cc3)no2)=CS(=O)(=O)c2ccccc21,> 10000
4,O=c1c(-c2cc(-c3ccccc3C(F)(F)F)no2)csc2ccccc12,> 10000
5,O=C1C(c2cc(-c3cccc(C(F)(F)F)c3)no2)=CS(=O)(=O)c2ccccc21,> 5240
6,COc1cccc(-c2cc(C3=CS(=O)(=O)c4ccccc4C3=O)on2)c1,> 1960
7,O=C1C(c2cc(-c3ccc(C(F)(F)F)cc3)no2)=CS(=O)(=O)c2ccccc21,> 315
